Molecular target: T1, Discoidin domain-containing receptor 2 (Homo sapiens, UniProt Q16832)
T1 sequence (Q16832 whole entry): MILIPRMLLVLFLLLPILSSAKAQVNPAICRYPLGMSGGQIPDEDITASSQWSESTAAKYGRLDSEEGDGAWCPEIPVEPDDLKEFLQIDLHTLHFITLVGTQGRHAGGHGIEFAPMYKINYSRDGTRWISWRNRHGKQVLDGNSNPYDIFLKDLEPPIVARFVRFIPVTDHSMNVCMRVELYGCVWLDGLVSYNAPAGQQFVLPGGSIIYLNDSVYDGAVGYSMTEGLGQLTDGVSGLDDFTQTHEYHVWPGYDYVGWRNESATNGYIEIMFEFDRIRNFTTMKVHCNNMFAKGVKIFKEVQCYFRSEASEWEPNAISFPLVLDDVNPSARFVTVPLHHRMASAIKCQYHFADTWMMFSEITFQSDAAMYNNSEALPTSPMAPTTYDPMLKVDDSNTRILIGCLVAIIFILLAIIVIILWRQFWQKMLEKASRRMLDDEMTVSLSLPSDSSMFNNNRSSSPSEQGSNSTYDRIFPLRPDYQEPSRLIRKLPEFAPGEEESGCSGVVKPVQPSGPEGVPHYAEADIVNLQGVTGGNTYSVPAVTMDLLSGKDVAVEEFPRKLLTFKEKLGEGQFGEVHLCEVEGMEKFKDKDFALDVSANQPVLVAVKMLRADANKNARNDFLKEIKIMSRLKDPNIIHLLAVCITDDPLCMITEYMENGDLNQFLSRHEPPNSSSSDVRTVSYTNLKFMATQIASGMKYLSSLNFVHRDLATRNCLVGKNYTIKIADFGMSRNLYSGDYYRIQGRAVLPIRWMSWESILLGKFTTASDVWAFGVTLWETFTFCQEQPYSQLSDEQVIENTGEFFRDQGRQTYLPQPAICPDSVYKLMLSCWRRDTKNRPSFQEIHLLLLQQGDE
Assay: Inhibition of DDR2 (unknown origin) using poly (Glu, Tyr) 4:1 substrate after 60 mins by ELISA

IC50: 1.5 nM
Compound: Cc1ccc(C(=O)Nc2cccc(C(F)(F)F)c2)cc1-c1ccc2cn[nH]c2c1
